Measured values: PubChem BioAssay (Tox21)
Values joined by “and” are separate entries in the source; they are usually repeats but may differ in a detail not shown here. Equal entries are not always repeated. This is a selection; strong and weak results do not stand in their true shares. Inconclusive results are not listed. Active and inactive are the calls of the source. Calls follow the shape of the dose curve; as a rule, active = well fitted curve in the direction sought with a large enough effect in the repeat runs; inconclusive = weak or mixed curves; inactive = no such curve, though single readings can be large; an effect the other way counts as inactive or inconclusive.

Columns and labels:
[1] = qHTS RealTime-Glo MT Cell Viability Assay in HEK293 cells - 0 hour (AID 1224880); conditions: RealTime-Glo luminescence; at 76.8 µM (top of the series) unless noted; also: top concentration of the series differs between compounds; nearly all actives have a fitted effect of over 45% in size
Source text: U.S. Tox21 Program National Center for Advancing Translational Sciences [NCATS] NIH Chemical Genomics Center [NCGC] U.S. Environmental Protection Agency [EPA] National Institutes of Environmental Health Sciences [NIEHS] National Toxicology Program [NTP] U.S. Food and Drug Administration [FDA] Tox21 Assay Overview: Measure of cell viability is critical in the cell-base assay. Analysis of cell viability is necessary for the characterization of cell responses to cytotoxic drugs and environmental stress. A RealTime-Glo MT Cell Viability Assay to monitor cell viability in real time of continues cell culture during 40 hours of compound treatment was used to screen Tox21 10K library compounds in Hek293 cells. The RealTime-Glo MT Cell Viability Assay is a nonlytic, homogeneous, bioluminescent method to measure cell viability in real time using a simple, plate-based method. The assay involves adding NanoLuc luciferase and a cell-permeant prosubstrate to cells in culture. Viable cells reduce the proprietary prosubstrate to generate a substrate for NanoLuc luciferase. This substrate diffuses from cells into the surrounding culture medium, where it is rapidly used by the NanoLuc Enzyme to produce a luminescent signal. The signal correlates with the number of viable cells, making the assay well suited for cytotoxicity studies.
Tox21 Assay Protocol Summary: The mixture of Hek293 cell suspension and reagents were dispensed at 600cells/6 ul/well in 1536-well tissue culture treated black solid bottom plates using a Multidrop dispenser. After the assay plates were incubated at a 37 C/5% CO2 incubator for 5 hours, 23 nL of compounds dissolved in DMSO, positive and negative controls was transferred to the assay plate by a pintool work station. The plates were incubated at 37 C for 40 hours. The luminescence intensity were measured at 0h, 8h, 16h, 24h, 32h and 40h time points using ViewLux plate reader during compound treatment.

[2] = A CellTox Green Cytotoxicity Assay to monitor cytotoxicity in HEK293 cells - 32 hour (AID 1224881); conditions: CellTox Green fluorescence; at 76.8 µM (top of the series) unless noted; also: nearly all actives have a fitted effect of over 40% in size
Summary of the method: (§1)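 Read-out: fluorescence of a cell-impermeant cyanine dye staining DNA of dead cells, proportional to cytotoxicity. HEK293, 600 cells/well with reagent, compound (23 nL DMSO) added after 5 h; reads at 0, 8, 16, 24, 32, 40 h.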

[3] = A CellTox Green Cytotoxicity Assay to monitor cytotoxicity in HepG2 cells - 0 hour (AID 1224882); conditions: CellTox Green fluorescence; at 76.8 µM (top of the series); also: nearly all actives have a fitted effect of over 35% in size
Summary of the method: (§2)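 HepG2, 600 cells/well premixed w/ CellTox Green; 5 h settle, 37 C/5% CO2; pintool cpd add (DMSO); 37 C, 40 h; fluorescence read at 0, 8, 16, 24, 32, 40 h.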

[4] = A CellTox Green Cytotoxicity Assay to monitor cytotoxicity in HepG2 cells - 32 hour (AID 1224883); conditions: CellTox Green fluorescence; at 76.8 µM (top of the series); also: nearly all actives have a fitted effect of over 50% in size
Summary of the method: as §2

[5] = A CellTox Green Cytotoxicity Assay to monitor cytotoxicity in HEK293 cells - 8 hour (AID 1224884); conditions: CellTox Green fluorescence; at 76.8 µM (top of the series) unless noted; also: nearly all actives have a fitted effect of over 35% in size
Source text: National Center for Advancing Translational Sciences [NCATS]
NIH Chemical Genomics Center [NCGC]
U.S. Environmental Protection Agency [EPA]
National Institutes of Environmental Health Sciences [NIEHS]
National Toxicology Program [NTP]
Cell-based models are critical for drug discovery. Determining the natural cytotoxic effects resulting from test compounds is an essential research activity. A CellTox Green Cytotoxicity Assay to monitor cytotoxicity in real time of continues cell culture during 40 hours of the compound treatment was used to screen Tox21 10K library compounds in Hek293 cells. CellTox Green Cytotoxicity Assay is a nonlytic, homogeneous, biofluorescent method to measure cytotoxicity in cell culture after experimental manipulation. The assay system uses a proprietary asymmetric cyanine dye that is excluded from viable cells but preferentially stains the dead cell's DNA. […] Viable cells produce no appreciable increases in fluorescence. Therefore, the fluorescence signal produced by the binding interaction with dead cell DNA is proportional to cytotoxicity.
The mixture of Hek293 cell suspension and reagents were dispensed at 600cells/6 ul/well in 1536-well tissue culture treated black solid bottom plates using a Multidrop dispenser. After the assay plates were incubated at a 37 C/5% CO2 incubator for 5 hours, 23 nL of compounds dissolved in DMSO, positive and negative controls was transferred to the assay plate by a pintool work station. The plates were incubated at 37 C for 40 hours. The fluorescence intensity were measured at 0h, 8h, 16h, 24h, 32h and 40h time points using ViewLux plate reader during compound treatment.

[6] = qHTS RealTime-Glo MT Cell Viability Assay in HepG2 cells - 16 hour (AID 1224885); conditions: RealTime-Glo luminescence; at 76.8 µM (top of the series) unless noted; also: nearly all actives have a fitted effect of over 50% in size
Summary of the method: (§3)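 Tox21 10K library screened in qHTS format on HepG2 cells carrying RealTime-Glo reagents. Compounds were added after a 5 h preincubation, and the luminescent signal from continuous culture was measured repeatedly during 40 h treatment.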

[7] = qHTS RealTime-Glo MT Cell Viability Assay in HEK293 cells - 24 hour (AID 1224886); conditions: RealTime-Glo luminescence; at 76.8 µM (top of the series) unless noted; also: top concentration of the series differs between compounds; nearly all actives have a fitted effect of over 50% in size
Summary of the method: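 Luminescence generated by NanoLuc from substrate produced by living HEK293 cells served as the viability signal. Each value reflects the reading at its stated time point during continuous 40 h compound exposure at 37 C.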

[8] = qHTS RealTime-Glo MT Cell Viability Assay in HEK293 cells - 8 hour (AID 1224887); conditions: RealTime-Glo luminescence; at 76.8 µM (top of the series) unless noted; also: top concentration of the series differs between compounds; nearly all actives have a fitted effect of over 50% in size
Summary of the method: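 Luminescence readout at each listed time point; HEK293, 600 cells/well, RealTime-Glo MT reagent added with cells; compounds pinned (23 nL in DMSO) after 5 h at 37 C; continuous culture at 37 C.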

[9] = A CellTox Green Cytotoxicity Assay to monitor cytotoxicity in HEK293 cells - 16 hour (AID 1224888); conditions: CellTox Green fluorescence, hits give high values; at 76.8 µM (top of the series) unless noted; also: nearly all actives have a fitted effect of over 35% in size
Summary of the method: as §1

[10] = qHTS RealTime-Glo MT Cell Viability Assay in HepG2 cells - 0 hour (AID 1224889); conditions: RealTime-Glo luminescence; at 76.8 µM (top of the series) unless noted; also: nearly all actives have a fitted effect of over 50% in size
Summary of the method: as §3
% is scaled to controls: 0 for no effect and ±100 for the full control effect.

CCOP(=S)(Cl)OCC
inactive: activity change, negative = cytotoxicity [1] 1.41% | cytotoxicity increase [2] 7.52% | cytotoxicity [3] 0.0211% | cytotoxicity increase [4] 4.87% | cytotoxicity increase [5] 6.07% | activity change, negative = cytotoxic [6] 0.243% | activity change, negative = cytotoxicity [7] 13.8% | activity change, negative = cytotoxicity [8] 3.16% | activity change [9] 2.57% | activity change, negative = cytotoxicity [10] -7.26%

ClCCNCCCl
inactive: activity change, negative = cytotoxicity [1] 10.9% | cytotoxicity increase [2] 1.8% | cytotoxicity [3] -8.52% | cytotoxicity increase [4] -13.5% | cytotoxicity increase [5] -1.43% | activity change, negative = cytotoxic [6] -12.4% | activity change, negative = cytotoxicity [7] -6.11% | activity change, negative = cytotoxicity [8] 11.2% | activity change [9] -0.493% | activity change, negative = cytotoxicity [10] -21.9%

CC(C)OP(OC(C)C)OC(C)C
inactive: activity change, negative = cytotoxicity [1] 0.42% | cytotoxicity increase [2] 9.72% | cytotoxicity [3] 7.34% | cytotoxicity increase [4] 0.418% | cytotoxicity increase [5] 9.78% | activity change, negative = cytotoxic [6] 0.875% | activity change, negative = cytotoxicity [7] -4.92% | activity change, negative = cytotoxicity [8] -2.34% | activity change [9] 12.8% | activity change, negative = cytotoxicity [10] 6.81%

CCC(=O)N(c1ccccc1)C1CCNCC1
inactive: activity change, negative = cytotoxicity [1] -0.491% [at 35.3 µM] | cytotoxicity increase [2] -12.9% [at 35.3 µM] | cytotoxicity increase [5] -6.63% [at 35.3 µM] | activity change, negative = cytotoxic [6] 8.57% [at 35.3 µM] | activity change, negative = cytotoxicity [7] 2.22% [at 35.3 µM] | activity change, negative = cytotoxicity [8] 10.1% [at 35.3 µM] | activity change [9] -7.94% [at 35.3 µM] | activity change, negative = cytotoxicity [10] 2.14% [at 35.3 µM]

CCOC(=O)N1CCC(=O)CC1
inactive: activity change, negative = cytotoxicity [1] 4.27% [at 35.3 µM] | cytotoxicity increase [2] 6.55% [at 35.3 µM] | cytotoxicity increase [5] 5.25% [at 35.3 µM] | activity change, negative = cytotoxic [6] 2.18% [at 35.3 µM] | activity change, negative = cytotoxicity [7] 0.466% [at 35.3 µM] | activity change, negative = cytotoxicity [8] 1.51% [at 35.3 µM] | activity change [9] 1.73% [at 35.3 µM] | activity change, negative = cytotoxicity [10] 4.42% [at 35.3 µM]

CCOP(=O)(Cl)Cl
inactive: activity change, negative = cytotoxicity [1] 5.67% and -2.82% | cytotoxicity increase [2] -10.2% and -13.5% | cytotoxicity [3] -1.22% and -0.241% | cytotoxicity increase [4] -9.18% and -9.55% | cytotoxicity increase [5] -12.6% and -8.47% | activity change, negative = cytotoxic [6] -0.116% and -0.105% | activity change, negative = cytotoxicity [7] 12.2% | activity change, negative = cytotoxicity [8] -2.58% and -19.3% | activity change [9] -12.1% and -13.9% | activity change, negative = cytotoxicity [10] -10.9% and -10.1%

O=[N+]([O-])c1ccccc1[N+](=O)[O-]
inactive: activity change, negative = cytotoxicity [1] -4.7% and 1.71% | cytotoxicity increase [2] 0.273% and 1.63% | cytotoxicity [3] -5.2% and -1.6% | cytotoxicity increase [4] -0.496% and -10.1% | cytotoxicity increase [5] -2.11% and 28.1% | activity change, negative = cytotoxic [6] -0.282% and -0.109% | activity change, negative = cytotoxicity [7] 8.25% | activity change, negative = cytotoxicity [8] -11.2% and -2.67% | activity change [9] 0.411% and 6.83% | activity change, negative = cytotoxicity [10] -0.0537% and 4.45%

ClCCOP(OCCCl)OCCCl
inactive: activity change, negative = cytotoxicity [1] 0.172% and 1.6% | cytotoxicity increase [2] -4.57% and 4.49% | cytotoxicity [3] -4.76% and -8.64% | cytotoxicity increase [4] -11% and -20.9% | cytotoxicity increase [5] -9.6% and 2.01% | activity change, negative = cytotoxic [6] 3.68% and 3.71% | activity change, negative = cytotoxicity [7] 10.3% and 0.977% | activity change, negative = cytotoxicity [8] 3.84% and 3.61% | activity change [9] -9.29% and 1.34% | activity change, negative = cytotoxicity [10] -3.79% and 3.58%
